Assays:
atypical BChE = target: T1, atypical BChE (Homo sapiens, UniProt P06276, D98G); test: Reversible inhibition of atypical BChE (Ellman method, Hunter–Downs evaluation); format: biochemical; conditions: enantiomers; substrate PTCh, pH 7.4, 25 °C; K(I) ± SE
T1 construct: Human native serum was used as a source of BChE; from tissue; host or cells: human serum
Experimental: (§1) ATCh was used as a substrate for AChE and PTCh as a substrate for BChE. The reaction mixture contained DTNB (final concentration 0.3 mM), buffer, enzyme suspension, inhibitor (0.5–10 mM) and ATCh or PTCh (0.025–1.0 mM). Inhibition of enzymes was determined by measuring the decrease in enzyme activity in the presence of inhibitors.
(§2) The dissociation constant for an enzyme–inhibitor complex K(I) was evaluated from the impact of substrate concentrations [S] on the degree of inhibition applying the Hunter–Downs equation[17]^,[39]: Ki,app=vi/v0-vi·[I]=K(I)+K(I)/K(S)·[S] where Ki,app is an apparent enzyme-reversible inhibitor complex dissociation constant obtained at a given substrate concentration [S] in the presence of inhibitor concentration [I] and calculated from the enzyme activities v0 and vi measured without inhibitor and in the presence of inhibitor concentration [I], respectively. K(I) is the enzyme-reversible inhibitor complex dissociation constant and can stand for a complex formed at the catalytic site or for a complex formed at the peripheral site of the enzyme. K(S) is the enzyme-substrate dissociation constant that could be approximated to the Michaelis constant or to the enzyme-substrate dissociation constant when two molecules of the substrate are bound to the enzyme.

The chains behind the UniProt entries cited, without tags or fusion partners. Residues count along the entry.
UniProt P06276, 29-602 D98G: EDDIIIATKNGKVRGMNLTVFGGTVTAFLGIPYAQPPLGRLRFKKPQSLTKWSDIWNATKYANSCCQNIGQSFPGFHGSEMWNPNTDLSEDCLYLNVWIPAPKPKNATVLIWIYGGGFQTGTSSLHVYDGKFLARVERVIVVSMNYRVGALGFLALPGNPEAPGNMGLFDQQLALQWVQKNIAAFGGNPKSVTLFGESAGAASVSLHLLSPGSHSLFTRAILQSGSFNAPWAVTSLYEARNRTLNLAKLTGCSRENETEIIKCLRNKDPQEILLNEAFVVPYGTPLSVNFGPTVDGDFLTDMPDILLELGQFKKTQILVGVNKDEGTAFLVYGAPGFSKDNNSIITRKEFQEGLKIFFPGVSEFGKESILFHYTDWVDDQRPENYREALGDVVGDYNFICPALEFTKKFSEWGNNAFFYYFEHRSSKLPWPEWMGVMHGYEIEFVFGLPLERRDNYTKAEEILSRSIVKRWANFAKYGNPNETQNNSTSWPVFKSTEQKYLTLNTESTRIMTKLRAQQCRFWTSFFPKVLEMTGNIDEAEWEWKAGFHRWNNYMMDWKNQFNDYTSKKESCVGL
UniProt P06276, 29-602: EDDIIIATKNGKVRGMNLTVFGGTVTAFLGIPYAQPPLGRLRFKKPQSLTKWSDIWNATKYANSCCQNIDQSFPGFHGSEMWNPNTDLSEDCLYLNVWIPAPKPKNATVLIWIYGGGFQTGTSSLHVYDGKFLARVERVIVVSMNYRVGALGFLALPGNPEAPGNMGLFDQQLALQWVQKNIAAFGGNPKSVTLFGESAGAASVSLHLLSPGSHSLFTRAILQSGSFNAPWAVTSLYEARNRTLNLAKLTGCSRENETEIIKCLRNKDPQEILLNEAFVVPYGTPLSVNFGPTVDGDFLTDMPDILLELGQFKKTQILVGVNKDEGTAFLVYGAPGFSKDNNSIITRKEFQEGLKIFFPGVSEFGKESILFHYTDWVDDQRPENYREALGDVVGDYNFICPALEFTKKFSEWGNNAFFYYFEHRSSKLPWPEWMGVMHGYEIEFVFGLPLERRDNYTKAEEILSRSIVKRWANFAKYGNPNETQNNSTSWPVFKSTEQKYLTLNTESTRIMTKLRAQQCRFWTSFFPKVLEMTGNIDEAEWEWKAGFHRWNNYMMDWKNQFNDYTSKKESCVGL
UniProt P22303, 32-614: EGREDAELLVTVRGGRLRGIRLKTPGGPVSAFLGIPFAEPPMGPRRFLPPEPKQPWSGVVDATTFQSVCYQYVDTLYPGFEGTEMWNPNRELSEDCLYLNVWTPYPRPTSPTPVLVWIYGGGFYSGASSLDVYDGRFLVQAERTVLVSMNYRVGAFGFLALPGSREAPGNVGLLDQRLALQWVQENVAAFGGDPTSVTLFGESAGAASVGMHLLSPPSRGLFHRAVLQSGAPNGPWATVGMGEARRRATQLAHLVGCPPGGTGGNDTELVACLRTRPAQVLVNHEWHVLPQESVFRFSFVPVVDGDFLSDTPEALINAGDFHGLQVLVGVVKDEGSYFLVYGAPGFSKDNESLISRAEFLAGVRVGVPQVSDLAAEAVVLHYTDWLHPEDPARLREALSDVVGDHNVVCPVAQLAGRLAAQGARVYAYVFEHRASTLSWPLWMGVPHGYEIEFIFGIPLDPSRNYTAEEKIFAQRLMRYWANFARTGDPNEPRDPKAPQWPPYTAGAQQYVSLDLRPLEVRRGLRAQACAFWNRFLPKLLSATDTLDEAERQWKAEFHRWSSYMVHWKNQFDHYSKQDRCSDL

usual BChE = target: T2, usual BChE (Homo sapiens, UniProt P06276); format: biochemical; conditions: for Ki: enantiomers, substrate PTCh, pH 7.4, 25 °C, K(I) ± SE
T2 construct: Human native serum was used as a source of BChE; from tissue; host or cells: human serum (donor, IMROH Zagreb)
Experimental: as §1, §2

human AChE = human AChE (Homo sapiens, UniProt P22303); format: biochemical; conditions: for Ki: enantiomers, substrate ATCh, pH 7.4, 25 °C, K(I) ± SE
Experimental: as §1, §2

fluoride-resistant BChE = fluoride-resistant BChE (Homo sapiens, UniProt P06276); conditions: enantiomers; substrate PTCh, pH 7.4, 25 °C; K(I) ± SE
Experimental: as §1, §2

| SMILES | Ki (atypical BChE) [µM] | Ki (usual BChE) [µM] | Ki (human AChE) [µM] | Ki (fluoride-resistant BChE) [µM] | inhibition potency higher than other compounds of the same group (usual BChE; usual BChE, versus other resorcinol-, catechol- or saligenin-based compounds) | increase in inhibition potency (human AChE; AChE, compared to metaproterenol and terbutaline) |
| --- | --- | --- | --- | --- | --- | --- |
| C[C@@H](Cc1ccc(O)cc1)NC[C@@H](O)c1cc(O)cc(O)c1 [(S,S)-fenoterol] | 100 | 13 ± 1 | 350 ± 30 | 37 ± 5 |  |  |
| CC(Cc1ccc(O)cc1)NCC(O)c1cc(O)cc(O)c1 (stereo not shown) [Fenoterol] |  |  |  |  | up to 23 times | fivefold |
| C[C@H](Cc1ccc(O)cc1)NC[C@H](O)c1cc(O)cc(O)c1 [(R,R)-fenoterol] | 130 ± 20 | 9.4 ± 0.8 | 540 ± 30 | 19 ± 4 |  |  |

Reference: paper PMC6445159, “Resorcinol-, catechol- and saligenin-based bronchodilating β2-agonists as inhibitors of human cholinesterase activity” (Journal of Enzyme Inhibition and Medicinal Chemistry, 2017)
